Measurements published in patent US20230126276A1, “FENTANYL HAPTENS, FENTANYL HAPTEN CONJUGATES, AND METHODS FOR MAKING AND USING” (published 2023).

Columns and labels:
[1] = system: fentanyl-induced antinociception; settings: mice; 0.05 mg/kg s.c. fentanyl; 30 minutes post-challenge; FIG. 2A
[2] = system: fentanyl-induced antinociception; settings: rats; 0.1 mg/kg s.c. fentanyl; F4-6 conjugates on sKLH or CRM2; FIG. 5A
[3] = system: fentanyl-induced respiratory depression and bradycardia; settings: rats, 0.1 mg/kg s.c. fentanyl

## Lithium 2-(3-(4-(N-(1-phenethylpiperidin-4-yl)propionamido)phenyl)ureido) acetate
[1]
  fentanyl-induced antinociception in the hot plate test: effective in significantly reducing (p≤0.0001)
[2]
  fentanyl antinociception in the hot plate test: effective in significantly reducing
[3]; FIG. 5B
  fentanyl respiratory depression (% oxygen saturation): effective in significantly reducing
[3]; FIG. 5C
  fentanyl bradycardia (heart rate): effective in significantly reducing
